Results: ChEMBL document CHEMBL5096162, “A review on ferulic acid and analogs based scaffolds for the management of Alzheimer's disease” (Eur J Med Chem, 2021)

Assay: Antioxidant activity assessed as trolox equivalent of ORAC radical scavenging activity by ORAC-FL assay
Type: functional

`COc1cc(/C=C/C(=O)O)ccc1O` [FERULATE] gave an Activity of 3.74 equiv.
